This passage reports IC50 results from patent US6723753B2, “Substituted n-benzyl-n-phenyl aminoalcohol compounds useful for inhibiting cholesteryl ester transfer protein activity” (Pharmacia Corporation, priority 2002, dated 2004).

The assay deals with T1, CETP (Homo sapiens, UniProt P11597).
T1 sequence (P11597 18-493): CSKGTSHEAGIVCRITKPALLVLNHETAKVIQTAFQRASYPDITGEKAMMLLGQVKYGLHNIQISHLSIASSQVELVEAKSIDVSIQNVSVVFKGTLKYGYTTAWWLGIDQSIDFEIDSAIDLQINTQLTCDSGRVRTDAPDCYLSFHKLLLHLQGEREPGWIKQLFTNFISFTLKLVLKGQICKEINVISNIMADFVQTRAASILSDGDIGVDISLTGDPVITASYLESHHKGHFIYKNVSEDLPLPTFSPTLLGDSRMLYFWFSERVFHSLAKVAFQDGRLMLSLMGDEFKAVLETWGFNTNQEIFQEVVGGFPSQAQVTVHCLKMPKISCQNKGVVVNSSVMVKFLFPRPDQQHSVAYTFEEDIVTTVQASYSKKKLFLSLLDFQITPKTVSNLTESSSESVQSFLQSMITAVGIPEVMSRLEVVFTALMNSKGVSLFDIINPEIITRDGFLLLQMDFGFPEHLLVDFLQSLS
As to the kind of experiment: Assay of CETP Inhibition using Purified Components (Reconstituted Buffer Assay). It is filed as biochemical. Conditions: Inhibition of CETP activity in reconstituted buffer assay; transfer of [3H]CE from HDL to LDL. The arrangement: made in house; host or cells: CHO cells (serum-free conditioned medium). The procedure: Assay of CETP Inhibition using Purified Components (Reconstituted Buffer Assay)
The ability of compounds to inhibit CETP activity was assessed using an in vitro assay that measured the rate of transfer of radiolabeled cholesteryl ester ([^3H]CE) from HDL donor particles to LDL acceptor particles. Details of the assay are provided by Glenn, K. C. et al. (Glenn and Melton, “Quantification of Cholesteryl Ester Transfer Protein (CETP): A) CETP Activity and B) Immunochemical Assay of CETP Protein,” Meth. Enzymol., 263, 339-351 (1996)). Human recombinant CETP can be obtained from the serum-free conditioned medium of CHO cells transfected with a cDNA for CETP and purified as described by Wang, S. et al. (J. Biol. Chem. 267, 17487-17490 (1992)). To measure CETP activity, [^3H]CE-labeled-HDL, LDL, CETP and assay buffer (50 mM tris(hydroxymethyl)aminomethane, pH 7.4; 150 mM sodium chloride; 2 mM ethylenediamine-tetraacetic acid (EDTA); 1% bovine serum albumin) were incubated in a final volume of 200 μL, for 2 hours at 37° C. in 96 well plates. […] The inhibitors were then diluted 1:1 with CETP in assay buffer, and then 25 μL of that solution was mixed with 175 μL of lipoprotein pool for assay. […] After filtration, the radioactivity present in the precipitated LDL was measured by liquid scintillation counting. […]
Examples of IC50 values determined by these methods are specified in Table 9.

SMILES strings stand for the structures.

`OC(CN(Cc1cccc(OC(F)(F)F)c1)c1ccc(F)cc1)C(F)(F)F` (stereo not shown) [Example 90]: the IC50 (in general, the concentration at which inhibition is half-maximal) is 9 µM. This lies in the single-digit micromolar range.
